{
  "source": "patent US12691111B2",
  "about": "“SETD2 inhibitors and related methods and uses, including combination therapies” (EPIZYME, INC., priority 2020, dated 2026)",
  "assay_in_all_cases": "7-day co-treatment combination study, CellTiter-Glo, Loewe Volume",
  "key": {"JVM2": {"tested_on": "JVM2", "assay_type": "cell-based", "conditions": "JVM2 mantle cell lymphoma cells, 7-day co-treatment with Cpd. No. 15"}, "KMS34": {"tested_on": "KMS34", "assay_type": "cell-based", "conditions": "KMS34 multiple myeloma cells, 7-day co-treatment with Cpd. No. 15"}, "RPMI-8226": {"tested_on": "RPMI-8226", "assay_type": "cell-based", "conditions": "RPMI-8226 multiple myeloma cells, 7-day co-treatment with Cpd. No. 15"}, "KMS-11": {"tested_on": "KMS-11", "conditions": "KMS-11 multiple myeloma cells, 7-day co-treatment with Cpd. No. 15"}, "Z138": {"tested_on": "Z138", "assay_type": "cell-based", "conditions": "Z138 mantle cell lymphoma cells, 7-day co-treatment with Cpd. No. 15"}, "JEKO1": {"tested_on": "JEKO1", "assay_type": "cell-based", "conditions": "JEKO1 mantle cell lymphoma cells, 7-day co-treatment with Cpd. No. 15"}},
  "data": [
    {"smiles": "CC(C)C[C@H](NC(=O)[C@H](Cc1ccccc1)NC(=O)c1cnccn1)B(O)O", "note": "[Bortezomib, bortezomib]", "values": [
      {"measurement": "Combination effect (Loewe Volume class) of Cpd. No. 15 with combination partner", "setting": "JVM2", "result": "Additivity (between 1 and −1: additivity)"},
      {"measurement": "Combination effect (Loewe Volume class) of Cpd. No. 15 with combination partner", "setting": "KMS34", "result": "Additivity (between 1 and −1: additivity)"},
      {"measurement": "Combination effect (Loewe Volume class) of Cpd. No. 15 with combination partner", "setting": "RPMI-8226", "result": "Additivity (between 1 and −1: additivity)"},
      {"measurement": "Combination effect (Loewe Volume class) of Cpd. No. 15 with combination partner", "setting": "KMS-11", "result": "Additivity (between 1 and −1: additivity)"},
      {"measurement": "Combination effect (Loewe Volume class) of Cpd. No. 15 with combination partner", "setting": "Z138", "result": "Additivity (between 1 and −1: additivity)"},
      {"measurement": "Combination effect (Loewe Volume class) of Cpd. No. 15 with combination partner", "setting": "JEKO1", "result": "Additivity (between 1 and −1: additivity)"}
    ]}
  ]
}
